Only a part is listed here, and it is no random draw. The source made the active and inactive calls.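 The calls were made as follows: active = highest replicate inhibition of at least 50% and at least 75% of replicates reaching 50%; inconclusive = only one of the two criteria met; inactive = both criteria failed.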
Target: Cyclin-dependent kinase 5 (Homo sapiens) + Cyclin-dependent kinase 5 activator 1 (Homo sapiens) (UniProt Q00535+Q15078)
Experiment: inhibitors of human CDK5/p35 kinase, primary screen, biochemical, single concentration (AID 488839);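 also: plate controls were DMSO neutral control for no effect and GW8510 at 10 µM for full effect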
Conditions: Recombinant CDK5/p35, ADP-Glo luminescence, 60 min; at 10 µM; stronger effect = higher value

The chains behind the UniProt entries cited, without tags or fusion partners.
UniProt Q00535, whole entry, looked up: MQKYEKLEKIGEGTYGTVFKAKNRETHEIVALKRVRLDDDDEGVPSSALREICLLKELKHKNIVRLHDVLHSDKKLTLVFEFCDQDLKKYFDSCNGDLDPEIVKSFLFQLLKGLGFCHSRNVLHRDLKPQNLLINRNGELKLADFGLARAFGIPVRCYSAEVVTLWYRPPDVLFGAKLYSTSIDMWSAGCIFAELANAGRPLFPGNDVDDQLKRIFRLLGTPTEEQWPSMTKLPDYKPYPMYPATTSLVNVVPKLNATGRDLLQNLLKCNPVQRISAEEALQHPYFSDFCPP
UniProt Q15078, whole entry, looked up: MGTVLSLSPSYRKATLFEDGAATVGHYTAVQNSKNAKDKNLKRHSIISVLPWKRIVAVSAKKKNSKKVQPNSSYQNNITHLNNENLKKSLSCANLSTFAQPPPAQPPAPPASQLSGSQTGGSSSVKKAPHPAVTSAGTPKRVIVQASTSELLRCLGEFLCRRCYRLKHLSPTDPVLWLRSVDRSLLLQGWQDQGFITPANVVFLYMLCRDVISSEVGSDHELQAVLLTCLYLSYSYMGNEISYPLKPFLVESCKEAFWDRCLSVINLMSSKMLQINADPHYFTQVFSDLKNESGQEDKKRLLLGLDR

Row | Compound | inhibition
1 | Cc1ccc(OP(=O)(Nc2ccccn2)Oc2ccc(C)cc2)cc1 | inactive: 3.57%
